From PubChem BioAssay AID493008 (The Scripps Research Institute Molecular Screening Center, 2010)
The entries are a selection whose mix differs from that of the whole data set. Active and inactive are the calls of the source.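 Rule for the calls: active = activation above the mean over all tested compounds plus 3 SD (cut at about 30% in these data); inactive = the rest.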

Biological target: Troponin I, cardiac muscle (Homo sapiens) + Troponin T, cardiac muscle (Homo sapiens) + Troponin C, slow skeletal and cardiac muscles (Homo sapiens) (UniProt P19429+P45379+P63316)
Experiment: calcium sensitizers of cardiac thin filaments – biochemical, IANBD-TnC fluorescence, EC20 calcium, primary screen (AID 493008);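 note: rise in fluorescence read as greater calcium sensitivity of cardiac thin filaments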
Conditions: IANBD-labeled TnC RTF fluorescence at EC20 calcium; at 7.2 µM; active compounds read high; 0% EC20 calcium, 100% full calcium

SMILES	activation
CCC(=O)N(c1ccccc1)C1(COC)CCN(CCn2nnn(CC)c2=O)CC1	inactive: -6.34%
CCC(=O)N(c1ccccc1)C1(COC)CCN(CCc2cccs2)CC1	inactive: -4.51%
